Experimental data: PubChem BioAssay (Tox21)
The list shows a part of the results, in another mix than the full data. Some tests of the compounds listed are not included; inactive here does not mean inactive elsewhere. Inconclusive results are not listed. Calls of active or inactive are those of the source. Unless noted, calls come from the whole dose curve; as a rule, active = well fitted curve in the direction sought with a large enough effect in the repeat runs; inconclusive = weak or mixed curves; inactive = no such curve, though single readings can be large; an effect the other way counts as inactive or inconclusive.

Chains of the proteins cited; added tags and fusions are not shown.
UniProt P03372, whole entry: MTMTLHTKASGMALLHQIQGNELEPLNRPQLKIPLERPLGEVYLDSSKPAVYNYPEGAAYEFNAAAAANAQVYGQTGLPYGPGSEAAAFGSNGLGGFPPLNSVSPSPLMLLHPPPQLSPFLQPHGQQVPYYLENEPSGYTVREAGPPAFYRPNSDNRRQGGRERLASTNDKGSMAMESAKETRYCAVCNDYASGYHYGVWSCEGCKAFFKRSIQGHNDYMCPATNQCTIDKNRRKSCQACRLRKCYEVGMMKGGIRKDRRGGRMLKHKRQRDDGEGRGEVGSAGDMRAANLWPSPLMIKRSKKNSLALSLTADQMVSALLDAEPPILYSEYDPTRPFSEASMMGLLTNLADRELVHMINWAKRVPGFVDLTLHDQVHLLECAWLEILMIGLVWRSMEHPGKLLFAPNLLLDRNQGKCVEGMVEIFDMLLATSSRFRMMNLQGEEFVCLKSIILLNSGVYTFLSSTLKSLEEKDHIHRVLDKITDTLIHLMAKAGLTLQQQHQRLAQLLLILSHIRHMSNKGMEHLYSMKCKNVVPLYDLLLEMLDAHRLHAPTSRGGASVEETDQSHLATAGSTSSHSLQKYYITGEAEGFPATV
UniProt P11511, whole entry: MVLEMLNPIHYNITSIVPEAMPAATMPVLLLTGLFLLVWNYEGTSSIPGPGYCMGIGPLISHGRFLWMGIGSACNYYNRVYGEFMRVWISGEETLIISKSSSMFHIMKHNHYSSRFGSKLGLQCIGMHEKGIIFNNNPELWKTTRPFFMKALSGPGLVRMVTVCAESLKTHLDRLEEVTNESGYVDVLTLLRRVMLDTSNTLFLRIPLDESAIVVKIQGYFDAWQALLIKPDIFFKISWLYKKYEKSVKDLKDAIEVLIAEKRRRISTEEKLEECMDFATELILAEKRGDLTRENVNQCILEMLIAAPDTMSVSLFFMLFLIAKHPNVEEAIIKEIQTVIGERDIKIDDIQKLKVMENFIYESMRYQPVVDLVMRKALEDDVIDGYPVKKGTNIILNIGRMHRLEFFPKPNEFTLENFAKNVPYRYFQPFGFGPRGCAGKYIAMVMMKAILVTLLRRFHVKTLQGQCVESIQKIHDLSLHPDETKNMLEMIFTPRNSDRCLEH
UniProt P37231, whole entry: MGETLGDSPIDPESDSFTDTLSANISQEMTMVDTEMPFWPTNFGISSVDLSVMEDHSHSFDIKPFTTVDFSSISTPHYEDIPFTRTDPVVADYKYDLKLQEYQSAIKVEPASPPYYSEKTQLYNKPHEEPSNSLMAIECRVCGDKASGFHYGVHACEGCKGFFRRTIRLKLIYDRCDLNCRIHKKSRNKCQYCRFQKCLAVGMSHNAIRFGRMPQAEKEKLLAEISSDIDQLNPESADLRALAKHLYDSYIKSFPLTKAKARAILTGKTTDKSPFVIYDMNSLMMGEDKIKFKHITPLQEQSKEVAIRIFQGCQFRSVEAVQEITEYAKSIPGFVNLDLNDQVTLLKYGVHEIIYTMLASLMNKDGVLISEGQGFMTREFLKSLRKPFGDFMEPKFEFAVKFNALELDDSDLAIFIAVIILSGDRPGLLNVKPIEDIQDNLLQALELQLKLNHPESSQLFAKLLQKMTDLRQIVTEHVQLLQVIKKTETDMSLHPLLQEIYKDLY

What was measured:
[1] = qHTS assay for identifying genotoxic compounds that show differential cytotoxicity against isogenic chicken DT40 cell lines with known DNA damage response pathways - wild type cell line (AID 743012); settings: DT40 wild type chicken cells viability, CellTiter-Glo, 40 h; at 68.4 µM (top of the series); note: nearly all actives have a fitted effect of over 60% in size
Outline: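 Wild-type DT40 cells (300/well) exposed to compounds for 40 hours at 37 C/5% CO2. Viability read by CellTiter-Glo luminescence after 30 min at room temperature.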

[2] = qHTS assay for identifying genotoxic compounds that show differential cytotoxicity against isogenic chicken DT40 cell lines with known DNA damage response pathways - Rev3 mutant cell line (AID 743014); settings: chicken DT40 Rev3-/- viability, CellTiter-Glo, 40 h; at 68.4 µM (top of the series); note: nearly all actives have a fitted effect of over 55% in size
[3] = qHTS assay for identifying genotoxic compounds that show differential cytotoxicity against isogenic chicken DT40 cell lines with known DNA damage response pathways - Rad54/Ku70 mutant cell line (AID 743015); settings: DT40 Rad54/Ku70 mutant viability, CellTiter-Glo, 40 h; at 66.8 µM (top of the series); note: nearly all actives have a fitted effect of over 60% in size
Text: (§1) National Center for Advancing Translational Sciences [NCATS]
(§2) NIH Chemical Genomics Center [NCGC]
(§3) U.S. Environmental Protection Agency [EPA]
(§4) National Institutes of Environmental Health Sciences [NIEHS]
(§5) National Toxicology Program [NTP]
(§6) U.S. Food and Drug Administration [FDA]
DNA repair pathways play a critical role in cellular homeostasis by repairing DNA damage induced by endogenous processes and xenobiotics. Isogenic chicken DT40 cell lines deficient in different DNA repair pathways can be used to identify genotoxic compounds and aid in characterizing the nature of the DNA damage induced. Two DNA repair-deficient cell lines with disrupted genes, Rad54/Ku70 or Rev3, were used to screen the Tox21 10K compound library. Possible genotoxicity was based on the presence of a significant increase in cytotoxicity in one or more of the DNA repair-deficient cell lines compared to that observed in the parental DNA repair-proficient cell line. […]
300 DT40 mutant cells in 5 uL/well were dispensed into white, solid-bottom 1536-well plates using a Multidrop Combi (ThermoFisher Scientific, Waltham, MA) dispenser. […] After 5 uL per well of CellTiter-Glo reagent was added into each well of the assay plates, the plates were incubated for 30 min at room temperature and the luminescence intensity of the plates was measured using a ViewLux (PerkinElmer, Shelton, CT) plate reader.

[4] = qHTS assay to identify small molecule antagonists of the androgen receptor (AR) signaling pathway - cell viability counter screen (AID 743033; note: nearly all actives have a fitted effect of over 45% in size); settings: AR-bla HEK293 viability, CellTiter-Glo luminescence, 16 h; at 58.5 µM (top of the series)
Text: as §1, §2, §3, §4, §5, §6
Androgen receptor (AR), a nuclear hormone receptor, plays a critical role in AR-dependent prostate cancer and other androgen related diseases. Endocrine disrupting chemicals (EDCs) and their interactions with steroid hormone receptors like AR may cause disruption of normal endocrine function as well as interfere with metabolic homeostasis, reproduction, developmental and behavioral functions. […]
AR-bla cells were dispensed at 2,000 cells/5 uL of assay medium per well into black wall/clear-bottom 1536-well plates using a Multidrop Combi (ThermoFisher Scientific, Waltham, MA) dispenser. […] After 1 uL of LiveBLAzerTM B/G FRET substrate was added using a Bioraptr FRD, the plates were incubated at room temperature for 2 h and fluorescence intensity was measured by an Envision plate reader (PerkinElmer, Shelton, CT). For cell viability readout that measures cytotoxicity, 4 ul/well of CellTiter-Glo reagent was added into the assay plates using a Bioraptr FRD. After 30 min incubation at room temperature, the luminescence intensity in the plates was measured using a ViewLux (PerkinElmer) plate reader.

[5] = qHTS assay to identify small molecule antagonists of the androgen receptor (AR) signaling pathway using the MDA cell line - cell viability counter screen (AID 743041; note: nearly all actives have a fitted effect of over 45% in size); settings: MDA-kb2 viability, CellTiter-Fluor, 16 h, cells co-treated with R1881 androgen agonist; at 70.3 µM (top of the series)
Outline: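 MDA-kb2 AR-luc human breast carcinoma cells (MMTV-luciferase, AR/GR responsive) were treated with compounds plus R1881 agonist for 16 h at 37 °C. Viability was read as CellTiter-Fluor fluorescence in the same wells as the reporter assay.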

[6] = qHTS assay to identify small molecule antagonists of the thyroid receptor (TR) signaling pathway - cell viability counter screen (AID 743064); settings: GH3.TRE-Luc viability, CellTiter-Fluor, 24 h; at 70.3 µM (top of the series); note: nearly all actives have a fitted effect of over 50% in size
Outline: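 Fluorescence from CellTiter-Fluor, added after 23.5 h exposure at 37 °C, reported viability of GH3.TRE-Luc cells co-treated with compound and 1 nM T3. Measured in the same wells as the luciferase TR readout.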

[7] = qHTS assay to identify small molecule antagonists of the thyroid receptor (TR) signaling pathway (AID 743065); settings: GH3.TRE-Luc, T3-stimulated luciferase inhibition, 23.5 h; at 70.3 µM (top of the series); note: nearly all actives have a fitted effect of over 55% in size
Outline: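 GH3.TRE-Luc rat pituitary cells carrying two TR response elements driving luciferase were plated for 4 h, given compound plus 1 nM T3 (final), and incubated 23.5 h at 37 C. ONE-Glo luminescence measured reporter inhibition; CellTiter-Fluor fluorescence tracked cytotoxicity.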

[8] = test system: thyroid hormone receptor (rat, GH3 cells); assay: qHTS assay to identify small molecule agonists of the thyroid receptor (TR) signaling pathway (AID 743066; calls by dose curve); settings: GH3.TRE-Luc cells, TR agonist luciferase, 24 h; at 83.9 µM (top of the series)
[9] = biological target: Estrogen receptor (Homo sapiens) (UniProt P03372); assay: qHTS assay to identify small molecule antagonists of the estrogen receptor alpha (ER-alpha) signaling pathway (AID 743069; active = well fitted curve in the direction sought with a large enough effect in the signal ratio in the repeat runs, not every such curve was filed as active; the % refers to the signal ratio); settings: HEK293 ER-alpha-UAS-bla, beta-lactamase ratio, antagonist mode; at 69.4 µM (top of the series)
Outline: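 HEK293 cells stably carrying an ER-alpha-UAS-bla beta-lactamase reporter were pre-cultured overnight in 2% charcoal-stripped FBS medium. Test compounds in DMSO were added together with 17beta-estradiol for 18 hr at 37C. Read-out was fluorescence after 2 hr with LiveBLAzer B/G FRET substrate at room temperature.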

[10] = qHTS assay to identify small molecule antagonists of the estrogen receptor alpha (ER-alpha) signaling pathway - cell viability counter screen (AID 743074; calls by dose curve; note: nearly all actives have a fitted effect of over 45% in size); settings: ERalpha-bla HEK293 viability, CellTiter-Glo luminescence, 18 h; at 69.4 µM (top of the series)
[11] = biological target: Estrogen receptor (Homo sapiens) (UniProt P03372); assay: qHTS assay to identify small molecule agonists of the estrogen receptor alpha (ER-alpha) signaling pathway (AID 743075; calls by dose curve); settings: HEK293 ER-alpha-UAS-bla, beta-lactamase FRET ratio, 18 h; at 70.1 µM (top of the series)
[12] = biological target: Estrogen receptor (Homo sapiens) (UniProt P03372); assay: qHTS assay to identify small molecule agonists of the estrogen receptor alpha (ER-alpha) signaling pathway using the BG1 cell line (AID 743079); settings: BG1Luc4E2 cells, ERE-luciferase agonist, 22 h; at 70.3 µM (top of the series); note: nearly all actives have a fitted effect of over 20% in size
[13] = qHTS assay to identify small molecule antagonists of the estrogen receptor alpha (ER-alpha) signaling pathway using the BG1 cell line (AID 743080; calls by dose curve;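 note: BG1 cells stimulated with 17beta-estradiol alongside compound; nearly all actives have a fitted effect of over 25% in size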); settings: BG1Luc4E2 ERE-luciferase antagonist mode, luminescence; at 70.3 µM (top of the series)
Outline: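 Endogenous full-length ER-alpha in BG1-Luc-4E2 cells drives a stably integrated 4×ERE luciferase gene; compounds were tested against 17beta-estradiol over 21.5 h, with luminescence and multiplexed viability fluorescence recorded.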

[14] = qHTS assay to identify small molecule antagonists of the estrogen receptor alpha (ER-alpha) signaling pathway using the BG1 cell line - cell viability counter screen (AID 743081); settings: BG1Luc4E2 viability, CellTiter-Fluor, 22 h; at 70.3 µM (top of the series);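 note: compound given together with 17beta-estradiol as the ER stimulus; nearly all actives have a fitted effect of over 45% in size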
[15] = biological target: Aromatase (Homo sapiens) (UniProt P11511); assay: qHTS assay to identify aromatase inhibitors (AID 743083); settings: MCF-7 aro ERE, testosterone-driven ERE luciferase, 24 h; at 70.3 µM (top of the series); note: nearly all actives have a fitted effect of over 55% in size
[16] = qHTS assay to identify aromatase inhibitors - cell viability counter screen (AID 743084); settings: MCF-7 aro ERE viability, CellTiter-Fluor, 24 h; at 70.3 µM (top of the series);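 note: cells stimulated with testosterone during compound exposure; nearly all actives have a fitted effect of over 55% in size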
[17] = qHTS assay to identify small molecule that activate the aryl hydrocarbon receptor (AhR) signaling pathway - cell viability counter screen (AID 743086); settings: HepG2-AhR-luc viability, CellTiter-Fluor, 24 h; at 70.3 µM (top of the series)
Outline: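 HepG2-AhR-luc (HG2L7.5c1) cells, 4000/well, were preincubated 5 h at 37C, exposed to compound in qHTS format for 24 hr at 37C, then given CellTiter-Fluor for 30 min; viability was read as fluorescence in the reporter wells.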

[18] = biological target: Peroxisome proliferator-activated receptor gamma (Homo sapiens) (UniProt P37231); assay: qHTS assay to identify small molecule agonists of the peroxisome proliferator-activated receptor gamma (PPARg) signaling pathway (AID 743094; active = well fitted activation curve with a large enough effect in the signal ratio in the repeat runs, not every such curve was filed as active; the % refers to the signal ratio); settings: HEK293H PPARg-UAS-bla, beta-lactamase FRET ratio, 17 h; at 57 µM (top of the series)
Outline: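 GeneBLAzer PPARg UAS-bla HEK293H cells were plated, rested 5 h, then exposed to compounds for 17 h at 37C. Beta-lactamase activity was read by LiveBLAzer B/G FRET substrate fluorescence after 1 h at room temperature.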
% is set by controls: 0 for no effect and ±100 for the full control effect.

CN1CCCC(OC(=O)C(O)(c2ccccc2)c2ccccc2)C1 (stereo not drawn)
inactive: activity change, negative = cytotoxicity [1] -17.6% | activity, negative = cytotoxicity [2] -1.86% | activity change, negative = cytotoxicity [3] -11% | activity change, negative = cytotoxicity [4] 3.37% | viability change, negative = cytotoxic [5] 7.23% | activity change, negative = cytotoxic [6] -12% | activity, negative = inhibition [7] -8.28% | activation [8] -1.73% | activity, negative = inhibition [9] 3.39% | activity, negative = cytotoxicity [10] -5.88% | activation [11] 1.52% | activation [12] 6.45% | activity change, negative = inhibition [13] -0.645% | activity change, negative = cytotoxicity [14] -1.91% | activity, negative = inhibition [15] 0.253% | activity change, negative = cytotoxicity [16] 1.39% | viability change, negative = cytotoxic [17] -1.64% | activation [18] -8.44%
